# Reference: US20240408099A1, “COMBINATION […] OF KRAS G12D INHIBITORS WITH Pan ErbB FAMILY INHIBITORS” (MIRATI THERAPEUTICS, INC., priority 2021, published 2024)
# Assays:
# Assay type in all cases: in vivo, nude/nude mice
# LS180 cells = test: LS180 colon cancer xenograft, tumor volumes; conditions: 0.25 mg/kg Q3D
# Description: (§1) Immunocompromised nude/nude mice are inoculated in the right hind flank with cells harboring a KRas G12D mutation. When tumor volumes reach between 200-400 mm^3 in size, the mice are divided into four to five groups of 5 mice each. The first group is administered vehicle only. […] The fourth or last groups are administered the single agent dose of the KRas G12D inhibitor using the twice daily schedule and/or the 2 sequential days followed by 5 days off schedule in combination with the single agent dose of one of the EGFR inhibitors. The treatment period varies from cell line to cell line but typically is between 15-40 days. Tumor volumes are measured using a caliper every two-three days and tumor volumes are calculated by the formula: […].
# (§2) 20 to 30 nude/nude mice per study were inoculated in the right hind limb with 5×10^6 LS180 cells, AsPC-1 cells, GP2D cells, Panc 02.03 cells, SW1990 cells, or SNU-1033 cells. […] Tumor volumes, measured at pre-specified days, for the five mice per group were averaged and are reported for LS180, AsPC-1, GP2D, Panc 02.03, SW1990, and SNU-1033 in Tables 2, 3, 4, 5 and 6, respectively.
# Experimental Procedures. 25 nude/nude mice were inoculated with LS180 cells in the right hind flank. When the tumors reached ˜250 mm^3 five treatment groups were established with five mice per group.
# Panc 02.03 = Panc 02.03 TGI-43 pancreatic cancer xenograft (Table 5), tumor volumes; conditions: 0.25 mg/dose Q3D
# Description: as §1
# as §2, with “respectively. […]” for “respectively.”
# SW1990 cells = test: SW1990 TGI MDS #200407-807 pancreatic cancer xenograft, tumor volumes; conditions: for Average Tumor Volumes: 0.25 mg/dose Q3D every 3 days
# Description: as §1, §2
# Experimental Procedures. 30 nude/nude mice were inoculated with SW1990 cells in the right hind flank. When the tumors reached ˜300 mm^3 six treatment groups were established with five mice per group.
substance,measurement,setting,value
Cetuximab: anti-EGFR monoclonal antibody approved for human clinical use (ImClone),tumor growth inhibition,"LS180 cells; single agent, Day 15",15%
same,Average Tumor Volumes,LS180 cells; Study Day 1,274.034 mm^3
same,Average Tumor Volumes,LS180 cells; Study Day 4,502.822 mm^3
same,Average Tumor Volumes,LS180 cells; Study Day 8,854.638 mm^3
same,Average Tumor Volumes,LS180 cells; Study Day 11,1330.518 mm^3
same,Average Tumor Volumes,LS180 cells; Study Day 15,1715.024 mm^3
same,tumor growth inhibition,"Panc 02.03; single agent, Day 22",33%
same,Average Tumor Volumes,Panc 02.03; Study Day 1,330.908 mm^3
same,Average Tumor Volumes,Panc 02.03; Study Day 4,382.648 mm^3
same,Average Tumor Volumes,Panc 02.03; Study Day 8,456.018 mm^3
same,Average Tumor Volumes,Panc 02.03; Study Day 11,489.668 mm^3
same,Average Tumor Volumes,Panc 02.03; Study Day 15,589.42 mm^3
same,Average Tumor Volumes,Panc 02.03; Study Day 18,730.102 mm^3
same,Average Tumor Volumes,Panc 02.03; Study Day 22,858.32 mm^3
same,Average Tumor Volumes,SW1990 cells; Study Day 2,448.1 mm^3
same,Average Tumor Volumes,SW1990 cells; Study Day 6,517.16 mm^3
same,Average Tumor Volumes,SW1990 cells; Study Day 9,561.72 mm^3
same,Average Tumor Volumes,SW1990 cells; Study Day 13,641.2 mm^3
same,Average Tumor Volumes,SW1990 cells; Study Day 16,749.78 mm^3
same,Average Tumor Volumes,SW1990 cells; Study Day 20,933.62 mm^3
same,Average Tumor Volumes,SW1990 cells; Study Day 23,1065.66 mm^3
same,Average Tumor Volumes,SW1990 cells; Study Day −1,365.06 mm^3
same,tumor growth inhibition,"SW1990 cells; 0.25 mg/dose Q3D, single agent, Day 23",42%
